Source: patent publication US11767504B2, “Albumin compositions and methods of producing and using same” (Albcura Corporation, priority 2020, dated 2023)

System: Insulin
Test: Assay of insulin aggregation stabilization by various albumin (absorbance at 360 nm)
Type: biochemical
Settings: 1−(A360 with albumin)/(A360 of (−) group), at time point where control A360 near 0.35; albumin samples 2 mg/mL mixed 1:1 with 0.7 mg/mL insulin working solution, 37° C.
Description: Various albumin samples were diluted to 2 mg/mL in purified water. An assay working solution was prepared containing 60 mM of HEPES (pH=7.4), 300 mM of NaCl, 30 mM of 2-mercaptoethanol, and 0.7 mg/mL of Insulin. In a 96-well plate, 100 μL of the assay working solution was mixed with 100 μL of each albumin sample. The plate was incubated at 37° C. inside a plate reader, and the absorbance at 360 nm was measured every 30 seconds for 60 minutes.
The absorbance data at 360 nm (A360) of each group was picked at the time point where the A360 of the control group (without albumin, labeled as (−)) was near 0.35. The data is depicted in FIG. 4 and the efficiency of the albumin's stabilizing effect was calculated by the equation below, and is summarized in Table 6 below. Stabilizing Efficiency %=1−(A360 of experimental group with albumin)/(A360 of (−) group)

Substance | Stabilizing Efficiency [%]
pHSA: Plasma-derived human serum albumin from Taiwan Blood Services Foundation (TBSF) | 23
rHSA (Optibumin ™): Recombinant human serum albumin (O. sativa) from InVitria, Optibumin | 39
rHSA (S. cerevisiae): Recombinant human serum albumin (S. cerevisiae) from Sigma Aldrich (A6608) | 71
